ChEMBL document CHEMBL6096734, “Design, Synthesis and Anti-Inflammatory Evaluation of 3-Substituted 5-Amidobenzoate Derivatives as Novel P2Y14 Receptor Antagonists via Structure-Guided Molecular Hybridization” (J Med Chem, 2025)
The source made the active and inactive calls.

What was measured:
Assay type in all cases: functional, cell-based
[1] = tested on: RAW264.7; experiment: Anti-inflammatory activity in LPS-induced ALI in mouse RAW264.7 cells assessed as decrease in TNF-alpha secretion level by ELISA method
[2] = tested on: RAW264.7; experiment: Anti-inflammatory activity in LPS-induced ALI in mouse RAW264.7 cells assessed as decrease in IL-6 secretion level by ELISA method
[3] = tested on: RAW264.7; experiment: Anti-inflammatory activity in LPS-induced ALI in mouse RAW264.7 cells assessed as decrease in Il-1 beta secretion level by ELISA method

Measured: Activity

O=C(O)c1cc(-c2ccc(C3CCNCC3)cc2)c2ccc(-c3ccc(C(F)(F)F)cc3)cc2c1 [PPTN]
active: [1] | [2] | [3]
